Experimental data reported in US11390613B2, “Azole analogues and methods of use thereof” (UNIVERSITY OF CONNECTICUT, priority 2017, dated 2022).

System: Gli1 mRNA levels in the murine BCC cell line ASZ-001 (Hh pathway)
Experiment: Hh pathway inhibition: endogenous Gli1 mRNA (qRT-PCR) in ASZ-001 cells
Format: cell-based
Details: Mus musculus, ASZ001, 48 h
Experimental: Initial Hh inhibition studies.
General Information for Cell Culture Studies Protocols for general cell culture, qPCR, and Hh inhibition ASZ cells are as previously described.
General Information for Cell Culture Studies. Protocols for general cell culture, qPCR, and Hh inhibition ASZ cells are as previously described.
Gene Expression Assay Protocol (ASZ-001): Cells are seeded (10,000 cells per well; 100 μL total volume per well) in a 96-well tissue culture plate. After 24 h of incubation (37° C., 5% CO2), growth media was removed and replaced with low FBS media. Cells were incubated for an additional 24 h. After this time, DMSO (vehicle control) and liposomes (Aqueous Solution) were added to the wells. […]
Rt-PCR Protocol: Following treatment and incubation periods, both RNA extraction and cDNA synthesis were performed using a TaqMan Cells-to-CT (fast) kit. cDNA synthesis utilized a BioRad MyCycler and was programmed according to the manufacturer's instructions. Quantitative RT-PCR was performed on an ABI 7500 system and made use of the following TaqMan Gene Expression Probes: mouse ActB (Mm00607939_s1) and mouse Gli1 (Mm00494654_m1). Relative gene expression levels were computed via ΔΔCT method using GraphPad Prism. Corresponding IC50 values were calculated as mean±SEM for at least three separate experiments performed in triplicate.

| SMILES | IC50 |
| --- | --- |
| C[C@]1(c2ccc(Cl)cc2Cl)OC[C@@H](COc2ccc(N3CCN(c4ccc(NC(=O)Oc5ccccc5)cc4)CC3)cc2)O1 [Compound 38, phenyl (4-(4-(4-(((2S,4R)-2-(2,4-dichlorophenyl)-2-methyl-1,3-dioxolan-4-yl)methoxy)phenyl)piperazin-1-yl)phenyl)carbamate] | > 10 µM |
| C[C@@]1(c2ccc(Cl)cc2Cl)OC[C@@H](COc2ccc(N3CCN(c4ccc(NC(=O)Oc5ccccc5)cc4)CC3)cc2)O1 [Compound 37, phenyl (4-(4-(4-(((2R,4R)-2-(2,4-dichlorophenyl)-2-methyl-1,3-dioxolan-4-yl)methoxy)phenyl)piperazin-1-yl)phenyl)carbamate] | > 10 µM |
